The values below come from ChEMBL document CHEMBL1124742 (J Med Chem, 1990).

One may read the IC50 as the concentration needed to halve the response being measured.

Assay [1] has as its system UV4. Description: In vitro cytotoxicity against transformed chinese hamster fibroblast line UV4. The class given is functional, cell-based, Cricetulus griseus.
Assay [2] has as its system CHO-AA8. Description: In vitro cytotoxicity against transformed chinese hamster fibroblast line AA8. The class given is functional, cell-based, Cricetulus griseus.
Assay [3] deals with P388. Description: In vitro cytotoxicity against P388 murine leukemia. Format: functional, cell-based, Mus musculus.
The test system of assay [4] is P388. Description: Optimal dose of drug administered as a single dose in 0.1 or 0.2 mL of 30% v/v ethanol/water on day one after ip inoculation of 10e6 P388 leukemia cells.

Regarding `COc1ccc(N(CCCl)CCCl)cc1`, the IC50 in assay [1] came to 340 nM; in assay [2] it was 2900 nM; in assay [3] it was 630 nM.
In assay [4], `CN(C)C(=O)c1ccc(N(CCCl)CCCl)cc1` came in with an OD of 65 mg/kg. For the same compound, the IC50 in assay [1] was 1200 nM; in assay [2] it was 28000 nM; in assay [3], 19200 nM.
On to `CSc1ccc(N(CCCl)CCCl)cc1`, for which the IC50 is 160 nM in assay [1], 5300 nM in assay [2] and 1470 nM in assay [3].
In assay [4], `CC(=O)c1ccc(N(CCCl)CCCl)cc1` registered an OD of 45 mg/kg. For the same compound, the IC50 in assay [1] was 5500 nM; in assay [2], above 40000 nM; in assay [3], above 40000 nM.
`CC(=O)Nc1ccc(N(CCCl)CCCl)cc1` displayed an OD in assay [4] of 65 mg/kg. In addition, the results for the IC50 in assay [1], in assay [2] and in assay [3] were 100 nM, 3100 nM and 8200 nM, respectively.
For `Cc1ccc(N(CCCl)CCCl)cc1`, the values for the IC50 in assay [1], in assay [2] and in assay [3] were 170 nM, 3200 nM and 410 nM, respectively.
In assay [4], `CS(=O)(=O)c1ccc(N(CCCl)CCCl)cc1` gave an OD of 100 mg/kg. This compound showed an IC50 in assay [1] of 42000 nM.
